# In the library only some 16% were active in any assay of this set; here they are far more common.
# TDP1 cell CPT: DT40-hTDP1 cell growth loss with CPT. 420,000 tested, 12% active. Potency, µM (series often up to 46.2 µM), inactives show top-dose activity change, negative = growth inhibition, usual class: inhibitors. AID 686979. chicken DT40 Tdp1-/-;hTDP1 cells + 20 nM CPT, ATP luminescence, 48 h; also: potency is read from the fitted curve at half-maximal effect; % is scaled to controls: 0 for no effect and ±100 for the full control effect; nearly all actives have a fitted effect of over 55% in size
#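 Chicken DT40 Tdp1-/- cells complemented with human TDP1, 400 cells/well, exposed to compounds plus 20 nM camptothecin for at least 48 h at 37 C; viability read as ATP content by CellTiter-Glo luminescence.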
# TDP1 cell noCPT: qHTS for Inhibitors of human tyrosyl-DNA phosphodiesterase 1 (TDP1): qHTS in cells in absence of CPT; Potency, µM (titrated, usually from 46.2 µM), for inactives: top-dose activity change, negative = growth inhibition, most hits filed as inhibitors; 420,000 tested, 15% active; DT40 Tdp1-/- hTDP1 cells, no CPT, ATP luminescence, 48 h; also: potency is read from the fitted curve at half-maximal effect; % is scaled to controls: 0 for no effect and ±100 for the full control effect; nearly all actives have a fitted effect of over 55% in size
#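 Cells were dispensed at 400 per well, compounds added by pin tool, plates incubated ≥48 hr at 37 °C, then CellTiter-Glo added for 30 min at room temperature before luminescence reading. Line: DT40 Tdp1-/- complemented with hTDP1; camptothecin omitted.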
# TDP1 inh: blocks human tyrosyl-DNA phosphodiesterase 1; Q9NUW8; Potency, µM (series often up to 130 µM), for the others: at the top dose activity change, negative = inhibition, most hits filed as inhibitors; 350,000 tested, 0.28% active; recombinant TDP1, AlphaScreen DNA substrate cleavage; also: potency is read from the fitted curve at half-maximal effect; % is scaled to controls: 0 for no effect and ±100 for the full control effect; nearly all actives have a fitted effect of over 40% in size
#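 AlphaScreen read-out: signal falls as enzyme removes the 3' tyrosine-FITC from a 5'-biotinylated DNA oligo (15 nM, 5 min, RT). Enzyme was E. coli-made recombinant Tdp1 at 1 nM, exposed to compound for 15 min beforehand; beads 10 ug/ml, 10 min.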
# miR-21 reporter: miR-21 reporter, rising signal | HeLa miR-21 FLuc reporter, luciferase, 48 h | Potency, µM (top dose mostly 38.3 µM), inactives show at the top dose reporter change, positive = more light | 340,000 tested, under 10 active | AID 2288; active = well fitted rising curve with a large enough effect; inconclusive = small, poorly fitted or top-dose-only effect; inactive = no such curve, though single readings can be large or run the other way;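 further: % of control where 0% means no effect; miR-21 action dims this reporter so a rising signal means less miR-21 action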
#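 Using DMEM plus 10% FBS, HeLa miR-21-FLuc cells are incubated with test compounds (final up to about 40uM) for 48 hours; firefly luciferase signal is then imaged following reagent-mediated lysis.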
# uPA generation: inhibitors of cell surface uPA generation | cell surface uPA generation assay, qHTS | Potency, µM (doses to about 38.3 µM), for inactives: at the highest dose activity change, negative = inhibition, most hits filed as inhibitors | 330,000 tested, 0.31% active; active = well fitted inhibition curve with a large enough effect; inconclusive = small, poorly fitted or top-dose-only effect; inactive = no such curve, though single readings can be large or run the other way; tested in mouse RAW 264.7 cells; also: potency is read from the fitted curve at half-maximal effect; % is scaled to controls: 0 for no effect and ±100 for the full control effect; nearly all actives have a fitted effect of over 55% in size
# Numbers without * were called inactive; ? = inconclusive; . = no result; [ ] = another dose, or the depositor's remark. Unless noted, calls follow the shape of the dose curve; as a rule, active = well fitted curve in the direction sought with a large enough effect; inconclusive = small, poorly fitted or top-dose-only effect, or another doubt; inactive = no such curve, though single readings can be large; an effect the other way counts as inactive or inconclusive.
# Assay codes – A = TDP1 cell CPT; B = TDP1 cell noCPT; C = TDP1 inh; D = miR-21 reporter; E = uPA generation
Oc1ccccc1CN1CCCC(N2CCc3ccccc3C2)C1 (centres undefined)
  A: -25%	B: ?	C: .	D: 0%	E: 11%

COc1ccccc1COC(=O)CN1C(=O)NC2(CCCCC2C)C1=O (centres undefined)
  A: 38%	B: -12%	C: 9%	D: .	E: 2%

Cc1ccnc(NS(=O)(=O)c2cc(C(F)(F)F)ccc2Cl)c1
  A: .	B: .	C: 6%	D: 2%	E: .

COc1cc(/C=C2\CCC(C3CCCC3)C2=O)ccc1OC(C)C (centres undefined)
  A: ?	B: ?	C: .	D: -5%	E: 7%

Cc1cc(Cl)c2oc(C(=O)N(C)Cc3ccon3)c(C)c2c1
  A: ?	B: -22%	C: -9%	D: -94%	E: -14%

COc1ccc(NC(=O)c2cccc(N3C(=O)C4CCC(C)CC4C3=O)c2)c(OC)c1 (centres undefined)
  A: -8%	B: ?	C: .	D: 0%	E: 0%

CCCOC(=O)CSc1ncnc2sc3c(c12)CCC(C)C3 (centres undefined)
  A: -18%	B: -24%	C: .	D: -10%	E: .

Cc1ccc(Nc2nc(Cl)nc(NC(C)(C)C)n2)cc1
  A: ?	B: 23µM*	C: -3%	D: -59%	E: -13%

Cc1ccc(Nc2nc(Cl)nc(N(C)C#N)n2)cc1
  A: ?	B: 23µM*	C: 3%	D: -1%	E: -13%

CC(C)(C)Nc1nc(Nc2ccc([N+](=O)[O-])cc2)nc(NC(C)(C)C)n1
  A: 21µM*	B: 21µM*	C: .	D: 1%	E: 0%

CCOC(=O)CNc1nc(Cl)nc(Nc2ccc(C)cc2)n1
  A: 2%	B: ?	C: .	D: -2%	E: 1%

CC(C)c1ccc(Nc2nc(Cl)nc(Cl)n2)cc1
  A: -14%	B: ?	C: .	D: 1%	E: -5%

CC(C)(C)Nc1nc(Cl)nc(NCc2ccccc2)n1
  A: 18µM*	B: ?	C: .	D: -7%	E: 0%

Cc1ccc(S(=O)(=O)CCC(=O)OCC(=O)NC(C)c2ccc(F)cc2)cc1 (centres undefined)
  A: -13%	B: -8%	C: 1%	D: .	E: 11%

CCC(CC)n1[nH]c(=O)cc1N
  A: -6%	B: 0%	C: 4%[56.1 µM]	D: 0%	E: 6%

Cc1ccc(-n2nnnc2CNC(=O)c2cc(C(F)(F)F)cc(C(F)(F)F)c2)cc1C
  A: ?	B: 16µM*	C: 0%	D: -8%	E: .

Cc1ccc(-n2nnnc2CNC(=O)c2ccc([N+](=O)[O-])o2)cc1C
  A: 13µM*	B: 7.3µM*	C: .	D: .	E: ?

O=C(c1ccc(NS(=O)(=O)c2ccc(Cl)cc2)cc1)N1CCOCC1
  A: -18%	B: -9%	C: .	D: -2%	E: 0%

COC(=O)C1CCN(Cc2cc(=O)oc3cc(C)c(Cl)cc23)CC1
  A: -18%	B: -2%	C: .	D: 0%	E: -3%

Cc1cc(=O)oc(C)c1C(=O)NCc1c(F)cc(F)cc1F
  A: -1%	B: -3%	C: -3%	D: 0%	E: .

Cc1ccc(-n2ncc3c(N4CCC5(CC4)OCCO5)ncnc32)c(C)c1
  A: 12µM*	B: 15µM*	C: 7%	D: 0%	E: 6%

CCN(CC)C(=O)C1CCN(c2ncnc3c2cnn3-c2ccc(C)cc2C)CC1
  A: ?	B: 21µM*	C: 9%	D: -5%	E: 0%

CCc1cc(C(=O)NC(C)C2CCCO2)cs1 (centres undefined)
  A: -4%	B: 21%	C: 5%	D: -35%	E: -1%

O=C1CN(C(=O)c2ccc(S(=O)(=O)N3CCCCC3)cc2)C(c2ccc(F)cc2)c2cc(Br)ccc2N1 (centres undefined)
  A: 26µM*	B: 21µM*	C: 6%	D: 18%	E: .

O=C1CN(C(=O)c2ccc(S(=O)(=O)N3CCCC3)cc2)C(c2ccccc2)c2cc(F)ccc2N1 (centres undefined)
  A: ?	B: ?	C: 3%	D: -1%	E: .

# Single records (already shown):
# Cc1ccc(Nc2nc(Cl)nc(N(C)C#N)n2)cc1 is listed with TDP1 cell CPT = ?; TDP1 cell noCPT = 23µM*; TDP1 inh = 3%; miR-21 reporter = -1%; uPA generation = -13%
# CC(C)(C)Nc1nc(Nc2ccc([N+](=O)[O-])cc2)nc(NC(C)(C)C)n1 is listed with TDP1 cell CPT = 21µM*; TDP1 cell noCPT = 21µM*; TDP1 inh = .; miR-21 reporter = 1%; uPA generation = 0%

# (next part)
# Assay codes – A = TDP1 cell CPT; B = TDP1 cell noCPT; C = TDP1 inh; D = miR-21 reporter; E = uPA generation
CN(C)S(=O)(=O)c1ccc(C(=O)N2CC(=O)Nc3ccc(Br)cc3C2c2ccc(F)cc2)cc1 (centres undefined)
  A: ?	B: ?	C: 9%	D: -16%	E: .

O=C1CN(C(=O)c2ccc(S(=O)(=O)N3CCCC3)cc2)C(c2ccc(F)cc2)c2cc(Br)ccc2N1 (centres undefined)
  A: ?	B: 18µM*	C: 6%	D: 25%	E: .

Cc1ccc2c(c1)C(c1ccc(F)cc1)N(C(=O)c1ccc(S(=O)(=O)N3CCCCC3)cc1)CC(=O)N2 (centres undefined)
  A: 18µM*	B: ?	C: 9%	D: 21%	E: .

O=C1CN(C(=O)c2cc([N+](=O)[O-])ccc2Cl)C(c2ccc(F)cc2)c2cc(F)ccc2N1 (centres undefined)
  A: ?	B: 15µM*	C: 8%	D: -6%	E: -3%

Cc1cc(C)cc(NC(=O)CSc2nccn2Cc2ccco2)c1
  A: -20%	B: -26%	C: 13%	D: -24%	E: 8%

C=CCOc1ccc(/C=C\c2nc(O)c([N+](=O)[O-])c(=O)[nH]2)cc1OCC
  A: -7%	B: -9%	C: .	D: -2%	E: 10%

CN1CCN(NC(=O)c2ccc(Cl)c(S(=O)(=O)Nc3ccc(Cl)cc3)c2)CC1
  A: -1%	B: 7%	C: 7%	D: -1%	E: -5%

CCCCC1CCC(C(=O)N2CC(=O)Nc3ccc(Br)cc3C2c2ccc(F)cc2)CC1 (centres undefined)
  A: 23µM*	B: 13µM*	C: 0%	D: ?	E: .

CC(C)(C)c1ccc(C(=O)N2CC(=O)Nc3ccc(F)cc3C2c2ccc(F)cc2)cc1 (centres undefined)
  A: 26µM*	B: 18µM*	C: 6%	D: ?	E: .

O=C1CN(C(=O)c2ccccc2)C(c2ccccc2)c2cc(F)ccc2N1 (centres undefined)
  A: 1%	B: -5%	C: .	D: 4%	E: 15%

O=C1CN(C(=O)c2cc3ccccc3oc2=O)C(c2ccc(F)cc2)c2cc(F)ccc2N1 (centres undefined)
  A: ?	B: -15%	C: 1%	D: 0%	E: 5%

O=C1CN(C(=O)c2cc3ccccc3oc2=O)C(c2ccc(F)cc2)c2cc(Br)ccc2N1 (centres undefined)
  A: 13µM*	B: ?	C: 4%	D: -1%	E: -10%

COc1ccc(-n2ccnc2CN2CCN(C3CCCC3)C(CCO)C2)cc1 (centres undefined)
  A: -12%	B: 3%	C: -8%	D: 2%	E: ?

CC(=O)c1ccc(Oc2ncnc(N)c2[N+](=O)[O-])cc1
  A: 23µM*	B: ?	C: .	D: -2%	E: -4%

CC(=O)c1ccccc1Oc1ncnc(N)c1[N+](=O)[O-]
  A: -12%	B: 16%	C: .	D: -6%	E: -10%

O=C(CCCCn1c(=S)[nH]c2ccsc2c1=O)NCc1ccco1
  A: 4%	B: -15%	C: -7%	D: 3%	E: -14%

CC(C)CC(NC(=O)c1ccc(Cl)cc1)C(=O)OCC(=O)c1ccc2c(c1)NC(=O)CO2 (centres undefined)
  A: 12µM*	B: 12µM*	C: 9%	D: ?	E: -9%

O=C1COc2ccc(C(=O)COC(=O)CCSc3ccccc3)cc2N1
  A: 7%	B: -11%	C: .	D: -1%	E: -1%

CCC(C(=O)OCC(=O)c1ccc2c(c1)NC(=O)CO2)c1ccccc1 (centres undefined)
  A: -18%	B: 21µM*	C: -5%	D: 0%	E: -1%

# Screening results as filed in PubChem BioAssay.
